Values of other authors, collected in article PMC7178819, “6,7-Dimethoxy-2-phenethyl-1,2,3,4-tetrahydroisoquinoline amides and corresponding ester isosteres as multidrug resistance reversers” (Journal of Enzyme Inhibition and Medicinal Chemistry, 2020).

By UniProt entry, the sequences of proteins in these tests, tags left out.
UniProt Q9UNQ0, whole entry: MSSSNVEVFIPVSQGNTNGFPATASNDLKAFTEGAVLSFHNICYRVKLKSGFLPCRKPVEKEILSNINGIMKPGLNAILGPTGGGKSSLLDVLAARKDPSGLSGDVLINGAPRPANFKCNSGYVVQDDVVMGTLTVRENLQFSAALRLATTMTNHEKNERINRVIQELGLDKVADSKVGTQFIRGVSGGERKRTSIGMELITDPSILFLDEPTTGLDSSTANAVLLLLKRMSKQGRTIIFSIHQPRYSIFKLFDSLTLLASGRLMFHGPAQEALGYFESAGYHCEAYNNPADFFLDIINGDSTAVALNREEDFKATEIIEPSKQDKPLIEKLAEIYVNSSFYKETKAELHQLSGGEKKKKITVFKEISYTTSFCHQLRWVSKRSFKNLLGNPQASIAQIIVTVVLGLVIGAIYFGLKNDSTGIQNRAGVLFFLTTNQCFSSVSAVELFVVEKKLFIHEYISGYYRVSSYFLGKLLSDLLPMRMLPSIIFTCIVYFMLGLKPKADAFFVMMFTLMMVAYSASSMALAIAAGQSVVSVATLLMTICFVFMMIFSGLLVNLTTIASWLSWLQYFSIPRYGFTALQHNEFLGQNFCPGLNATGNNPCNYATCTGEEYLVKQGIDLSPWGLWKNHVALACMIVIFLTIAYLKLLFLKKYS
UniProt P08183, whole entry: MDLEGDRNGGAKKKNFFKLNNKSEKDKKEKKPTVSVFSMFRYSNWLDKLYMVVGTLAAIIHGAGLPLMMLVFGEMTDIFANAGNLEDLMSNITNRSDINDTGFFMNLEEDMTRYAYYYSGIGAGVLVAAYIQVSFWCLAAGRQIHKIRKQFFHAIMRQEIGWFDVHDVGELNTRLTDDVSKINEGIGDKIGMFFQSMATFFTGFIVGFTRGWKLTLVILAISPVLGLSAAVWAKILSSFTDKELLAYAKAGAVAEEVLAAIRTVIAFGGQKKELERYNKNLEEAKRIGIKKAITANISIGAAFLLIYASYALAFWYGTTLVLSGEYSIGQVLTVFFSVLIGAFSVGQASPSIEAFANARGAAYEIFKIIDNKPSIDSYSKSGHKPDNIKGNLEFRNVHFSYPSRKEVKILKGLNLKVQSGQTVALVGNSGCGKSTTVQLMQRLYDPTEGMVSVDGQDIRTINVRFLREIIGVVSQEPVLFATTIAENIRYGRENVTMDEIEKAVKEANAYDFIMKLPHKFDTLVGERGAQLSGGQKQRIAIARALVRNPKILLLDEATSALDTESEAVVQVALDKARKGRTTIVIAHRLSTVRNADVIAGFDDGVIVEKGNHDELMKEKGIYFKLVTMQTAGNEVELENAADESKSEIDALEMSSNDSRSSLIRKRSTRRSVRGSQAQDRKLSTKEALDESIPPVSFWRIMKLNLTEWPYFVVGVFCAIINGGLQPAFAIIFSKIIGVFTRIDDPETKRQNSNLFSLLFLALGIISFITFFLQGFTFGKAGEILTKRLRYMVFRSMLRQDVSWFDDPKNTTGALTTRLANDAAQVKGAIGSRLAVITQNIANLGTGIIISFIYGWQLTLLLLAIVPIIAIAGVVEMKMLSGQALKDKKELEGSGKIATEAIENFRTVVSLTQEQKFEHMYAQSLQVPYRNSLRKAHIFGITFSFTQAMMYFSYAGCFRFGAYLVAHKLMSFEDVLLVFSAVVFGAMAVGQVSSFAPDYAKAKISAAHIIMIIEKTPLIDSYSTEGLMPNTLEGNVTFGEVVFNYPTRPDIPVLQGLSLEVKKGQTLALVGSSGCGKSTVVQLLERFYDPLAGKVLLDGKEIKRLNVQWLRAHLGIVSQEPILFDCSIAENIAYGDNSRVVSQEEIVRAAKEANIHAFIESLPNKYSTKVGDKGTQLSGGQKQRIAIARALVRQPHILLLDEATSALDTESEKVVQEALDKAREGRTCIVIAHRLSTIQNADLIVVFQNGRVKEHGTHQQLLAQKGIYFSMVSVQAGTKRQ

Experiments:
BCRP = BCRP (Homo sapiens, UniProt Q9UNQ0); details: read-out: (EC50) BCRP; Hoechst 33342, MDCK-BCRP cells; NA: not active; cited from earlier work
[1] = human plasma; cited from earlier work
P-gp [2] = target: T1, P-gp (Homo sapiens, UniProt P08183); details: MDCK-MDR1 cells; Yes/No; cited from earlier work
P-gp [3] = target: T1, P-gp; details: read-out: (EC50) P-gp; Calcein-AM, MDCK-MDR1 cells; cited from earlier work
Caco-2 cell monolayer = details: Caco-2 monolayer, BA/AB ratio; cited from earlier work

Compound | EC50 (BCRP) | t1/2 [1] | ATP cell depletion (P-gp [2]) | EC50 (P-gp [3]) | Papp (BA/AB) (Caco-2 cell monolayer)
COc1cc2c(cc1OC)CN(CCc1ccc(OC(=O)c3cc(OC)c(OC)c(OC)c3)cc1)CC2 | 17 µM | ≥240 min | No | 930 nM | 5.5
COc1cc2c(cc1OC)CN(CCc1ccc(NC(=O)c3cc(OC)c(OC)c(OC)c3)cc1)CC2 |  | ≥240 min | No | 1040 nM | 5.1
